Assay results reported in US11737461B2, “Citrate perhydrates and uses thereof” (BIOREM ENGINEERING SA, priority 2018, dated 2023).

Legend:
[1] = tested on: Staphylococcus aureus MRSA
[2] = tested on: Staphylococcus aureus MRSA; assay: microbe, parasite or virus in culture

SMILES | MIC % [1] [%] | MIC ([2]; read-out: MIC value) [µg/mL] | MIC ([2]; read-out: MIC mM) [mM] | MIC value [1] [µg/mL]
CCO [Ethanol] | 8.750 | 87500 |  | 
OO [Hydrogen peroxide] | 0.094 | 940 | 27.6 | 
O=C([O-])CC(O)(CC(=O)[O-])C(=O)[O-].[Na+].[Na+].[Na+] [Sodium citrate] | 0.320 |  |  | 3200

Read-outs that look alike come from different tables or passages of the source.
